In US20230364230A1, “COMBINATION THERAPY FOR CANCER” (ENGMAB SÀRL, priority 2020, published 2023):

Test system: NK cells
Assay: NK cell proliferation in DLBCL patient PBMCs stimulated with anti-CD3
Assay type: cell-based, human
Settings: PBMCs treated 1 hour prior to anti-CD3 stimulation for 3 days
Description: Percentage of NK cells was analyzed via flow cytometry gated on live CD3-CD19-CD14-CD56+CD16+NK cells. Cytokinic NK cells were […]16^low and cytotoxic NK cells were CD56^lowCD16^high populations.

## Nc1cccc2c1CN(C1CCC(=O)NC1=O)C2=O (stereo not shown) [lenalidomide, 3-(7-amino-3-oxo-1H-isoindol-2-yl)piperidine-2,6-dione]
  NK cell proliferation in DLBCL patient samples: dose dependently enhanced
